Laboratory results as given in US8815918B2, “Imidazo [2, 1-B] [1, 3, 4] thiadiazole derivatives” (Centro Nacional de Investigaciones Oncologicas (CNIO), priority 2009, dated 2014).

Chains of the proteins cited; added tags and fusions are not shown.
UniProt P42336, whole entry: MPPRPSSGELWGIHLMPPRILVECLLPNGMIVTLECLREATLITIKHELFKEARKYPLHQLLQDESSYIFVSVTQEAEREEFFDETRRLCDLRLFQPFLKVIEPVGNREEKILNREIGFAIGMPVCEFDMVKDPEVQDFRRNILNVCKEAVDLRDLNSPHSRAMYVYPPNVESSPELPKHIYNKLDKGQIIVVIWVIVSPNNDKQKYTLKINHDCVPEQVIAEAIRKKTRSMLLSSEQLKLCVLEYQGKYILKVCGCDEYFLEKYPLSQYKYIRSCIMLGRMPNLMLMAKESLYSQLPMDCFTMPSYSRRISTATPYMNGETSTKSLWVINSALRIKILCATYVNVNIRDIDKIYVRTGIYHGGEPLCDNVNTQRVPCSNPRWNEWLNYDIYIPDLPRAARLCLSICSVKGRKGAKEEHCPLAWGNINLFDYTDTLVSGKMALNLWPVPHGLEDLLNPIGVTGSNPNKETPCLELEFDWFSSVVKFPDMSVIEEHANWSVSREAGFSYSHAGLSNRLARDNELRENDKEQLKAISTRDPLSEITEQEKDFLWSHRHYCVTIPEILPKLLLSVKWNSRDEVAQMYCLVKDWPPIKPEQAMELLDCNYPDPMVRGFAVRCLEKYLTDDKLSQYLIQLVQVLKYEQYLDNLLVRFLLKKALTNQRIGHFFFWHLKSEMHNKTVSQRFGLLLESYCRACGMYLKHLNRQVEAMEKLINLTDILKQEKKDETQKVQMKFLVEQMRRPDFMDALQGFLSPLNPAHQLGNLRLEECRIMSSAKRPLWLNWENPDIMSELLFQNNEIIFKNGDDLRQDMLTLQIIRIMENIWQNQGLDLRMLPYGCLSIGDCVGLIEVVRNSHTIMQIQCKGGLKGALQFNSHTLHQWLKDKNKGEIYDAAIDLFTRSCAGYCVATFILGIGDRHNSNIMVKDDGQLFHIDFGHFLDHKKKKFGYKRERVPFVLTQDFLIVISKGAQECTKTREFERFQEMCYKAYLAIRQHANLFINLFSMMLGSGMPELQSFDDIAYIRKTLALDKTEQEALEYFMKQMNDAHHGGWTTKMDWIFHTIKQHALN
UniProt P27986, whole entry partner: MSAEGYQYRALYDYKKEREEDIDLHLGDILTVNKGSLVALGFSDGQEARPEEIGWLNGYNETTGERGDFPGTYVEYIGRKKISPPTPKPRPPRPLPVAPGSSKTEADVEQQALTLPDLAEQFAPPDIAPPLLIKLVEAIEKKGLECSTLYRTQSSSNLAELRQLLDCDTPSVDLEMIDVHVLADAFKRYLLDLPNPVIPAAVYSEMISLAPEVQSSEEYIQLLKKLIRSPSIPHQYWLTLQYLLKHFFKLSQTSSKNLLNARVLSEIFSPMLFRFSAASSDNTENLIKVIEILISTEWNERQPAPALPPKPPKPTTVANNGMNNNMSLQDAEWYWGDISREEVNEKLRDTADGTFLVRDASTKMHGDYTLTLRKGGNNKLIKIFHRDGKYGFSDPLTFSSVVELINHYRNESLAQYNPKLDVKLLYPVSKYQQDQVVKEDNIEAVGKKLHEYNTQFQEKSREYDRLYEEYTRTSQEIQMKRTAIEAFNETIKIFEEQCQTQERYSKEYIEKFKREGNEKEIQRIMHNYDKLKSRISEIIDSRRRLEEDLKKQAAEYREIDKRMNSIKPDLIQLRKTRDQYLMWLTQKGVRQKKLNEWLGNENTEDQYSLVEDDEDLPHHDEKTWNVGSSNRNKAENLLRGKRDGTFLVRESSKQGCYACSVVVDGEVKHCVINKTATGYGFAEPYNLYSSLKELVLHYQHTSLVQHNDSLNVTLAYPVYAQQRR

Target: PI3K (p110α/p85α) (Homo sapiens (Human), UniProt P42336)
Test: PI3K Activity Assay (ADP Hunter Plus)
Settings: read-out: Biological activity in PI3Kα, semi-quantitative
Protocol: The kinase activity was measured by using the commercial ADP Hunter™ Plus assay available from DiscoveRx (#33-016), which is a homogeneous assay to measure the accumulation of ADP, a universal product of kinase activity. The enzyme, PI3K (p110α/p85α was purchased from Carna Biosciences (#07CBS-0402A). The assay was done following the manufacturer recommendations with slight modifications: Mainly the kinase buffer was replace by 50 mM HEPES, pH 7.5, 3 mM MgCl2, 100 mM NaCl, 1 mM EGTA, 0.04% CHAPS, 2 mM TCEP and 0.01 mg/ml BGG. The PI3K was assayed in a titration experiment to determine the optimal protein concentration for the inhibition assay. To calculate the IC50 of the ETP-compounds, serial 1:5 dilutions of the compounds were added to the enzyme at a fixed concentration (2.5 μg/mL. The enzyme was preincubated with the inhibitor and 30 μM PIP2 substrate (P9763, Sigma) for 5 min and then ATP was added to a final 50 μM concentration. Reaction was carried out for 1 hour at 25° C. Reagent A and B were sequentially added to the wells and plates were incubated for 30 min at 37° C. Fluorescence counts were read in a Victor instrument (Perkin Elmer) with the recommended settings (544 and 580 nm as excitation and emission wavelengths, respectively). Values were normalized against the control activity included for each enzyme (i.e., 100% PI3 kinase activity, without compound). […]

COc1ncc(-c2nn3c(-c4ccnnc4)cnc3s2)cc1NS(=O)(=O)c1ccc(F)cc1F
IC50: < 100 nM
